{"sequences": {"note": "Amino acid sequences for entries named in this document (tags omitted).", "UniProt P35372, whole entry": "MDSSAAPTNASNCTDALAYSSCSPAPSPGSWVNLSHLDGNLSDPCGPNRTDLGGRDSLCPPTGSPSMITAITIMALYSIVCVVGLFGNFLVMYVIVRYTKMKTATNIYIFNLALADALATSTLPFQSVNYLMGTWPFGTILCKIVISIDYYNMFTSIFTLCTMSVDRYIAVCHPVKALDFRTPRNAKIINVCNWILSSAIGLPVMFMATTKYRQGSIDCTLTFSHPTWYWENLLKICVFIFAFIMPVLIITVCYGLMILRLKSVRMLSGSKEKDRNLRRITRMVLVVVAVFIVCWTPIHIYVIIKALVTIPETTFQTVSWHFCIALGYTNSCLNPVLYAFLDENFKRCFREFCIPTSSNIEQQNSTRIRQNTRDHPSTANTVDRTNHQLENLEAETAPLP", "UniProt P41145, whole entry": "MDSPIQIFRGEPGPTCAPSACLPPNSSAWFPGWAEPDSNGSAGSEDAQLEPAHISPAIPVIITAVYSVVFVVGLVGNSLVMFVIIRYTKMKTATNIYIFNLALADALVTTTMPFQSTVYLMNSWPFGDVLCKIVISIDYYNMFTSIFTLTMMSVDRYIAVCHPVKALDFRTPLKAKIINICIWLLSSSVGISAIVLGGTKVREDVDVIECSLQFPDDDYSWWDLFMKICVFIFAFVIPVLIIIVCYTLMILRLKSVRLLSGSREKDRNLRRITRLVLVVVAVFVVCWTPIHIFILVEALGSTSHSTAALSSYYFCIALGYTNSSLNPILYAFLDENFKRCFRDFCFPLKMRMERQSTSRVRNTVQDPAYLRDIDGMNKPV"}, "source": "patent US9988392B2", "about": "“7-beta-alkyl analogs of orvinols” (dated 2018)", "key": {"μ-opioid receptor [1]": {"biological_target": "T1, μ-opioid receptor (Homo sapiens (Human), UniProt P35372)", "assay": "μ-opioid receptor [35S]GTPγS functional assay, U-2 OS cells"}, "μ-opioid receptor [2]": {"biological_target": "T1, μ-opioid receptor", "assay": "μ-opioid receptor [35S]GTPγS functional assay, HEK-293 cells", "settings": "for μ Emax (%): maximal effect relative to DAMGO; for EC50: read-out: μ EC50, μ GTP EC50"}, "κ-opioid receptor": {"biological_target": "κ-opioid receptor (Homo sapiens (Human), UniProt P41145)", "assay": "κ-opioid receptor [35S]GTPγS functional assay, U-2 OS cells"}}, "note": "This is a selection: effects in other tests are not listed, and their absence says nothing.", "data": [{"substance": "(4R,4aS,6R,7R,7aR,12bS)-3-(cyclopropylmethyl)-6-((furan-3-ylmethoxy)methyl)-7-methoxy-6-methyl-1,2,3,4,5,6,7,7a-octahydro-4a,7-ethano-4,12-methanobenzofuro[3,2-e]isoquinoline", "values": [{"measurement": "μ Emax (%)", "setting": "μ-opioid receptor [1]; maximal effect relative to DAMGO, U-2 OS cells", "value": "68.3 ± 0.88", "unit": "%"}, {"measurement": "EC50", "setting": "μ-opioid receptor [1]; read-out: μ EC50, μ GTP EC50, membranes from U-2 OS cells", "value": 0.13, "unit": "nM"}, {"measurement": "μ Emax (%)", "setting": "μ-opioid receptor [2]; HEK-293 cells", "value": 1.50, "unit": "%"}, {"measurement": "EC50", "setting": "μ-opioid receptor [2]; HEK-293 cells, μM", "value": "> 20", "unit": "µM"}, {"measurement": "κ Emax (%)", "setting": "κ-opioid receptor; maximal effect relative to U69,593, U-2 OS cells", "value": "105.0 ± 5.69", "unit": "%"}, {"measurement": "EC50", "setting": "κ-opioid receptor; read-out: κ EC50, κ GTP EC50, membranes from U-2 OS cells", "value": 0.037, "unit": "nM"}]}, {"substance": "(4R,4aS,6R,7R,7aR,12bS)-6-((benzylamino)methyl)-3-(cyclopropylmethyl)-7-methoxy-1,2,3,4,5,6,7,7a-octahydro-4a,7-ethano-4,12-methanobenzofuro[3,2-e]isoquinolin-9-ol", "values": [{"measurement": "μ Emax (%)", "setting": "μ-opioid receptor [2]; HEK-293 cells", "value": "28.7 ± 4.41", "unit": "%"}, {"measurement": "EC50", "setting": "μ-opioid receptor [2]; membranes from HEK-293 cells", "value": 0.00339, "unit": "µM"}]}]}
